The values below come from US9790233B2, “Compositions and methods of modulating 15-PGDH activity” (CASE WESTERN RESERVE UNIVERSITY, priority 2012, dated 2017).

Sequences of proteins named here, by UniProt entry; tags and fusion partners are left off.
UniProt P15428, whole entry: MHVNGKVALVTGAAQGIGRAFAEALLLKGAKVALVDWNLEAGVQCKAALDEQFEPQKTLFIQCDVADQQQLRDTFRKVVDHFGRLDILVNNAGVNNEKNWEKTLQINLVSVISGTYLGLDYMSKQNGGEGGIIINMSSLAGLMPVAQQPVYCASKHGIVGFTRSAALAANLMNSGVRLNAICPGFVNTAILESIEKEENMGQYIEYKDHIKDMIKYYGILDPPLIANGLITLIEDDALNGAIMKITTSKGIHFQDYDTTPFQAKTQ

For assay [1], the target named is T1, 15-PGDH (Homo sapiens (Human), UniProt P15428). In words: Shift of melting temperature of recombinant 15-PGDH (SYPRO Orange). In kind it is binding. To be noted: FIG. 14.
Assay [2] relates to A549 cells. In words: PGE2 levels in the medium of IL1-beta stimulated A549 cells.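 Further: PGE2 in the collected culture medium quantified by enzyme immunoassay (ELISA), with data drawn from three independent experiments.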 Particulars: IL1-beta 23 hours, compound added for the last 5 hours. In kind it is cell-based.
Assay [3] addresses T1, 15-PGDH. In words: Total 15-PGDH activity in compound treated cell lines (tritium method). In kind it is cell-based. Particulars: FIG. 13.
Assay [4] deals with T1, 15-PGDH. In words: 15-PGDH protein levels in treated cells (western blot, immuno-fluorescence). In kind it is cell-based.
In assay [5] the test system is 15-PGDH protein. The description is as above. In kind it is cell-based. To be noted: V400-M3-2-72 cells.
In assay [6] the test system is 15-PGDH mRNA. In words: 15-PGDH mRNA levels by real-time PCR. In kind it is cell-based. Particulars: treated colon cancer cell lines. (In general: In qPCR the cycle at which signal appears reflects the starting amount.)

Consider `COc1ccc(-c2cc(C(F)(F)F)n3nc(C(=O)N4CCCCC4)cc3n2)cc1`, for which the “direct binding to recombinant 15-PGDH (melting temperature shift)” value in assay [1] was “show evidence of direct binding to 15-PGDH”. In addition, the “PGE2 levels in medium” value in assay [2] is on record as “clear inhibition of 15-PGDH activity”. Further, the “15-PGDH activity in treated cells” value in assay [3] is “increasing 15-PGDH activity in most cell lines”. Also, the “levels of 15-PGDH protein (wt-PGDH) expressed from cDNA vector” value in assay [4] (5 μM, V400-S3-2-32 cells) was “increases levels of 15-PGDH protein (wt-PGDH)”. Also, the 15-PGDH protein levels result in assay [4] (V503 cells, immuno-fluorescence and western blot) is given as “increase in 15-PGDH protein levels”. In addition, in assay [4] (colon cell lines, FIG. 3), the “15-PGDH protein levels (western blot)” value is given as “increases 15-PGDH protein levels”. Moreover, in assay [5], the “protein levels of catalytically dead mutant 15-PGDH (mu-PGDH)” value is “increases protein levels of a catalytically dead mutant 15-PGDH”. Besides, the “15-PGDH mRNA levels (real-time PCR)” value in assay [6] is “do not in general alter 15-PGDH mRNA levels”.
